The entries are a selection whose mix differs from that of the whole data set. Activity calls are given as the source filed them. Cut-off read from the data, not from the text of the source: active = inhibition above about 22%; inactive = the rest.

This assay can be described thus: nonselective antagonists in TAAR1 counter-screen cells, counter-screen for hTAAR1 antagonist project, cell-based, fluorescence, calcium (AID 651780).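 Note: CHO-Ga16 host cells stimulated with ATP at an EC80 level; 0% = agonist EC80 plus vehicle and 100% = vehicle without agonist.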 Conditions: counterscreen cell line, antagonist mode, at 3 µM, hits give high values. (In general: Counterscreens check selectivity or assay interference.)
For `O=c1[nH]c2ccccc2n1C1CCN(C(c2ccnc3ccccc23)c2nnnn2C2CCCCC2)CC1` (stereo not drawn), the inhibition is inactive: 17.3%.

Regarding `COc1cccc(C(c2nnnn2C2CCCC2)N2CCC(n3c(=O)[nH]c4ccccc43)CC2)c1OC` (stereo not drawn), the inhibition was inactive: 12.5%. Take `O=c1[nH]c2ccccc2n1C1CCN(C(c2cccs2)c2nnnn2C2CCCCC2)CC1` (stereo not drawn): the inhibition is inactive: 13%. Turning to `CCCCn1nnnc1C(c1ccccc1)N1CCC(n2c(=O)[nH]c3ccccc32)CC1` (stereo not drawn), the inhibition is active: 25.1%. With `O=c1[nH]c2ccccc2n1C1CCN(C(c2cccs2)c2nnnn2C2CCCC2)CC1` (stereo not drawn), the inhibition was inactive: 17.5%. Regarding `O=c1[nH]c2ccccc2n1C1CCN(C(c2ccccc2)c2nnnn2C2CCCC2)CC1` (stereo not drawn), the inhibition was inactive: 20.6%.

As for `CCCCn1nnnc1C(c1cc2ccccc2o1)N1CCC(n2c(=O)[nH]c3ccccc32)CC1` (stereo not drawn), the inhibition is inactive: 12.6%.

Take `O=c1[nH]c2ccccc2n1C1CCN(C(c2ccccc2)c2nnnn2C2CCCCC2)CC1` (stereo not drawn): the inhibition is inactive: 18.5%.

Broadly, the inhibition is the percentage by which the read-out fell short of the control.
